Laboratory results as given in publication PMC3582496 (PLoS Biology, 2013).

Assays:
GST-CNA1 and CNB1 = type: binding, yeast; conditions: 350 ng S-A238L157–239, GST-CNA1/CNB1, excess peptide
CN = type: binding

Sequence | disruption of A238L-CN binding by competing peptide (GST-CNA1 and CNB1; listed as peptide that encodes the LxVP docking motif from NFATc1) | disruption of A238L-CN binding by competing peptide (GST-CNA1 and CNB1; listed as peptides encoding the LxVP site from NFATc1) | disruption of GST-fusion/CN interaction by competing peptide (CN) | disruption of A238L-CN binding by competing peptide (GST-CNA1 and CNB1)
DQYLAVPQHPYQWAK [LxVPc1] | disrupted A238L-CN binding | interferes with A238L-CNA binding | disrupted by the addition of a peptide encoding the LxVP motif from NFATc1; also recorded: this interaction is disrupted by incubation with excess peptide LxVPc1 | 
GPHPVIVITGPHEE |  |  |  | interferes with A238L-CNA binding

“Also recorded” adds a separate entry of the source. Read-outs that look alike come from different tables or passages of the source.
